Assay results published in US9248200B2, “Method of delivering an anti-cancer agent to a cell” (Agency for Science, Technology and Research, priority 2007, dated 2016).

System: SKBR-3 (HER2-overexpressing human breast cancer cell line)
Test: Cancer cell proliferation assessment (Alamar Blue)
Assay type: cell-based
Conditions: SKBR-3 cells; Herceptin 0.5 mg/ml; FIG. 4
Method: Cancer Cell Proliferation Assessment: SKBR-3 cells (ATCC, HTB3O, USA) were plated (1×10^4 cells in McCoy's 5 A medium/well) in quintuplicate and octuplicate for samples and control, respectively, in 96-well microplates and allowed to adhere overnight. […] At the time points indicated, the culture media were replaced by the phenol red-free media containing 10% of Alamar Blue. Cell proliferation was determined from the reduction in dye absorbance at 570 and 600 nm after 4 h of incubation.

For “Herceptin: humanized monoclonal antibody against the HER2/neu (erbB2) receptor”, the “inhibition of cell growth” value was “inhibited”.
